Assay results from publication PMC11237553, “De novo synthetic antimicrobial peptide design with a recurrent neural network” (Protein Science : A Publication of the Protein Society, 2024).

Columns and labels:
[1] = tested on: Escherichia coli ATCC 25922; experiment: Broth microdilution antimicrobial susceptibility testing (MIC/MBC); format: cell-based; conditions: one maximum and one minimum data point dropped; for MIC, E. coli ATCC 25922: broth microdilution (CLSI, adapted for cationic AMPs), Mueller‐Hinton Broth, 5 ± 3 × 10^5 CFU/mL, 20–24 h at 37°C, test range 128 down to 0.25 μg/mL, lowest effective concentration range in three independent experiments in duplicate; for MBC, E. coli ATCC 25922: concentration killing 99.9% of the inoculum, plated from MIC wells, 24 h at 37°C, range in three independent experiments in duplicate
Procedure: (§1) Bacteria from frozen stocks were streaked onto non‐selective Columbia blood agar with 5% sheep blood (Oxoid) and incubated for 18–24 h at 37°C. The following day, 2–4 colonies were streaked onto a new agar plate and incubated for 18–24 h at 37°C to ensure uniform colony health prior to the assay. A standardized bacterial inoculum was prepared by suspending isolated colonies in Mueller‐Hinton Broth (MHB; Sigma‐Aldrich, St. Louis, MO, USA). The suspension was adjusted to an optical density of 0.08–0.1 at 600 nm, equivalent to a 0.5 McFarland standard of approximately 1–2 × 10^8 CFU/mL (CFU: colony forming units). The inoculum was then diluted 1:250 to achieve a final concentration of 5 ± 3 × 10^5 CFU/mL. The target bacterial density was confirmed by examining the total viability counts from the final inoculum.
(§2) Candidate AMPs were purchased from and synthesized by GenScript (Piscataway, NJ, USA). These were received in lyophilized format and stored at −20°C, and were suspended in sterile ultrapure water prior to testing.

[2] = tested on: Staphylococcus aureus ATCC 29213; experiment: as above; format: cell-based; conditions: one maximum and one minimum data point dropped; for MIC, S. aureus ATCC 29213: broth microdilution (CLSI, adapted for cationic AMPs), Mueller‐Hinton Broth, 5 ± 3 × 10^5 CFU/mL, 20–24 h at 37°C, test range 128 down to 0.25 μg/mL, lowest effective concentration range in three independent experiments in duplicate; for MBC, S. aureus ATCC 29213: concentration killing 99.9% of the inoculum, plated from MIC wells, 24 h at 37°C, range in three independent experiments in duplicate
Procedure: as §1, §2

[3] = tested on: Porcine red blood cells (RBCs); experiment: Hemolysis assay; format: cell-based, pig; conditions: 1% porcine RBC in RPMI, 37°C for 30–45 min, absorbance 415 nm, test range 128 down to 1 μg/mL, Triton‐X100 = 100%; range in three independent experiments in duplicate, one maximum and one minimum data point dropped

Sequence	MIC, E. coli ATCC 25922 [1]	MBC, E. coli ATCC 25922 [1]	MIC, S. aureus ATCC 29213 [2]	MBC, S. aureus ATCC 29213 [2]	HC50 (concentration that lyses 50% of the RBCs), porcine RBCs [3]
QLPRIAGKIAKKL [DeNo1035]	> 128 µg/mL	> 128 µg/mL	> 128 µg/mL	> 128 µg/mL	> 128 µg/mL
QLPSVLPAIAKAL [DeNo1036]	> 128 µg/mL	> 128 µg/mL	> 128 µg/mL	> 128 µg/mL	> 128 µg/mL
RLPRIFRGIRGKL [DeNo1030]	128 µg/mL	≥ 128 µg/mL	> 128 µg/mL	> 128 µg/mL	> 128 µg/mL
SLPSILSGIAGKL [DeNo1029]	> 128 µg/mL	> 128 µg/mL	> 128 µg/mL	> 128 µg/mL	> 128 µg/mL
TKPKGTKPKGTKPKG [OT15, in‐house peptide [TKPKG]3, truncated from negative control peptide [TKPKG]4 (OT20); negative control, reference compound]	> 128 µg/mL	> 128 µg/mL	> 128 µg/mL	> 128 µg/mL	> 128 µg/mL
WLPKIAGKIAGKL [DeNo1043]	> 128 µg/mL	> 128 µg/mL	> 128 µg/mL	> 128 µg/mL	> 128 µg/mL
YLPSVLKGLLKKL [DeNo1052]	≥ 128 µg/mL	≥ 128 µg/mL	> 128 µg/mL	> 128 µg/mL	> 128 µg/mL
YLPSVLPSVLKPL [DeNo1032]	> 128 µg/mL	> 128 µg/mL	> 128 µg/mL	> 128 µg/mL	> 128 µg/mL
